Data reported in paper PMC10604187 (Antioxidants, 2023).

Chains of the proteins cited; added tags and fusions are not shown. Residues count along the entry.
UniProt C7FF04, 2-392: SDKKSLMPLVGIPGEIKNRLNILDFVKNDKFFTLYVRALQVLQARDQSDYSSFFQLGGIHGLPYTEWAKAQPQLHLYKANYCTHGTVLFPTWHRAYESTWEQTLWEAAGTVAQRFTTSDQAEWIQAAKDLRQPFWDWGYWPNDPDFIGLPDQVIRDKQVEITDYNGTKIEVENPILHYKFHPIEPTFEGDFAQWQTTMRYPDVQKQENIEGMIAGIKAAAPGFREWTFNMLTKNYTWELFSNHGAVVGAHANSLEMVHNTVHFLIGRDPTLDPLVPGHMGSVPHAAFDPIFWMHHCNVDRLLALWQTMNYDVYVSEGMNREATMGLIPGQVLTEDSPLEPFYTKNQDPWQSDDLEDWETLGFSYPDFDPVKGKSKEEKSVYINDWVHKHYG
UniProt C7FF04, 1-392: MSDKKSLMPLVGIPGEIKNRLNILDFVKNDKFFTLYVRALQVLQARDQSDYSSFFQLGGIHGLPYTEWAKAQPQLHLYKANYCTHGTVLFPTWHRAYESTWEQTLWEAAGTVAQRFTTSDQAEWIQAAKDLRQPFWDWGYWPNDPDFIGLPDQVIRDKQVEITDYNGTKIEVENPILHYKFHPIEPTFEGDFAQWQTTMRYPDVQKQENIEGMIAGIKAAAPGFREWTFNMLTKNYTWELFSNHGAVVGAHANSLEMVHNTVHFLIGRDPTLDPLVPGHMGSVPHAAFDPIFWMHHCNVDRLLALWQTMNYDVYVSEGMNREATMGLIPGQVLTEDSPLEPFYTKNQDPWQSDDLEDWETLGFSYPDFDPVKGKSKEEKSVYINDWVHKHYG

How the values were obtained:
mushroom tyrosinase [1] = biological target: T1, mushroom tyrosinase (Agaricus bisporus, UniProt C7FF04); assay: Mushroom tyrosinase inhibitory assay, monophenolase activity (L-tyrosine substrate); assay type: biochemical; settings: vs kojic acid
Method: The effect of the analogs on enzyme inhibition was investigated in the presence of L-dopa and L-tyrosine. […] After incubating the assay mixture for 0.5 h at 37 °C, the amounts of dopachrome produced during the incubation time were evaluated by measuring the absorbances of each well at 475 nm using a VersaMax^TM microplate reader (Molecular Devices, Sunnyvale, CA, USA).

mushroom tyrosinase [2] = biological target: T1, mushroom tyrosinase; assay: biochemical
Method: Briefly, a dimethyl sulfoxide (DMSO) solution (10 µL) containing test analogs (final concentrations: 0, 5, 10, and 20 nM) was added to the wells of a 96-well plate containing mushroom tyrosinase (20 µL, 200 units/mL) and an aqueous solution (170 µL) consisting of L-dopa (final concentrations: 0.125, 0.25, 0.5, 1, 2, 4, and 8 mM) and phosphate buffer (final concentration: 14.7 mM, pH 6.5). The increase in the absorbance at 475 nm (ΔOD475/min) was measured using a VersaMax^TM microplate reader to determine the initial rate of dopachrome generation. The maximal velocity (Vmax) was determined from the y-axis intercept values of the Lineweaver–Burk plots obtained at seven different L-dopa concentrations. Dixon plots were obtained from Lineweaver–Burk plots for inhibitors by plotting the reciprocal of the reaction velocity against the inhibitor concentration.

fold more potent than kojic acid, monophenolase activity (mushroom tyrosinase [1]): 280 fold
Ki (mushroom tyrosinase [2]): 9.4 nM
mode of tyrosinase inhibition (mushroom tyrosinase [2]; Lineweaver–Burk plots, L-dopa): mixed-type
Structure (SMILES): Sc1nc2cc(Cl)ccc2[nH]1 [analog 4, 5-Chloro-1H-benzo[d]imidazole-2-thiol]
